For 1 molecule, IC50 results are on record in BindingDB's records for US20240124427 (Idorsia Pharmaceuticals, 2024).

Chains of the proteins cited; added tags and fusions are not shown. Residues count along the entry.
UniProt P17931, 2-250 limits assumed: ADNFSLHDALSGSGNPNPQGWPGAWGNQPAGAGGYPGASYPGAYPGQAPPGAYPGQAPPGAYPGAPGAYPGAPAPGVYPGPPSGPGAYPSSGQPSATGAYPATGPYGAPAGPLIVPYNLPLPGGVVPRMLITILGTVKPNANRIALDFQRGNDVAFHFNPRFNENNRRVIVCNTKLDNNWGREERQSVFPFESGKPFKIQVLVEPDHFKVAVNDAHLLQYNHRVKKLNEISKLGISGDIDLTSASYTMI

For the test, the target named is Galectin-3 (Homo sapiens, UniProt P17931). The test can be described thus: Spectrophotometric Assay.

Broadly, the IC50 is the point on the concentration scale where inhibition reaches its midpoint. On to `CO[C@@H]1[C@@H](n2cc(-c3cc(F)c(F)c(F)c3)nn2)[C@@H](O)[C@@H](CO)O[C@H]1C(=O)N(c1cc(Br)cc(C#N)c1)[C@H]1CCNC[C@@H]1O`, for which the midpoint of inhibition, the IC50, lay at 17 nM.
